Data reported in patent publication US20160052983A1 (ALKERMES, published 2016).

What was measured:
[1] = molecular target: T1, IL-1RI_Fc (fusion protein), immobilized mouse IL1RI receptor (mouse, UniProt P13504 20-338, limits assumed); experiment: SPR (Biacore), IL-1RI_Fc captured on the chip with the Human Antibody Capture Kit, analyte injected at 5 rising concentrations from 0.24 to 20 nM
T1 construct: not shown: Fc part; captured with the Human Antibody Capture Kit
T1 sequence (looked up): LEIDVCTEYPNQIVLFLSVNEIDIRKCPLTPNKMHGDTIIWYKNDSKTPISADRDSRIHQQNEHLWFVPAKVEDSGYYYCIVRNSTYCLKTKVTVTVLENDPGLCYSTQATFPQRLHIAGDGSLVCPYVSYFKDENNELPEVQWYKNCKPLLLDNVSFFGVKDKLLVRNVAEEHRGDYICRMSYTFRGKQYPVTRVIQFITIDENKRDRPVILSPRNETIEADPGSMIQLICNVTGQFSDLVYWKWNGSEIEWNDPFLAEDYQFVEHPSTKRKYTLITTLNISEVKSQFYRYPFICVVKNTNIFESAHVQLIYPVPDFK

[2] = molecular target: T1, IL-1RI_Fc (fusion protein), immobilized …; experiment: SPR (Biacore), IL-1RI_Fc captured on the chip with the Human Antibody Capture Kit; sensorgram of Anakinra not shown, parameters in the inset only
[3] = molecular target: T1, IL-1RI_Fc (fusion protein), immobilized …; experiment: SPR (Biacore), IL-1RI_Fc captured on the chip with the Human Antibody Capture Kit, analyte injected at 5 rising concentrations from 0.24 to 20 nM; remark: listed apart in the source
[4] = molecular target: T1, IL-1RI_Fc (fusion protein), immobilized …; experiment: as above; remark: listed apart in the source

B1: RDB1813 (IL-1Ra fused to 2 MUC20 tandem repeats, C-terminal His-tag) (other)
chain: SARRPSGRKSSKMQAFRIWDVNQKTFYLRNNQLVAGYLQGPNVNLEEKIDVVPIEPHALFLGIHGGKMCLSCVKSGDETRLQLEAVNITDLSENRKQDKRFAFIRSDSGPTTSFESAACPGWFLCTAMEADQPVSLTNMPDEGVMVTKFYFQEDEGGGGSASSESSASSDGPHPVITESRASSESSASSDGPHPVITESRGSSHHHHHH
notes: Expressed in CHO cells and heavily glycosylated on the mucin domain; also called IL1Ra 2TR; 2TR
koff [1]: 8.7e-05 s⁻¹
kon [1]: 360000 M⁻¹ s⁻¹

B2: Unmodified IL-1Ra (anakinra) (ligand, human, UniProt P18510 26-177, looked up)
chain: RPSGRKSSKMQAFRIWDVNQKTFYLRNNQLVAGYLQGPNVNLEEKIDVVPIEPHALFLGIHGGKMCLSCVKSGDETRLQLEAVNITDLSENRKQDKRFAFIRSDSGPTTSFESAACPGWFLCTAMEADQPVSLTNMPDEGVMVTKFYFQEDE
notes: mature; It describes anakinra as 153 amino acids
koff [2]: 0.00015 s⁻¹
kon [2]: 2.8e+06 M⁻¹ s⁻¹

B3: RDB1814 (IL-1Ra fused to 4 MUC20 tandem repeats, C-terminal His-tag) (other)
chain: SARRPSGRKSSKMQAFRIWDVNQKTFYLRNNQLVAGYLQGPNVNLEEKIDVVPIEPHALFLGIHGGKMCLSCVKSGDETRLQLEAVNITDLSENRKQDKRFAFIRSDSGPTTSFESAACPGWFLCTAMEADQPVSLTNMPDEGVMVTKFYFQEDEGGGGSASSESSASSDGPHPVITESRASSESSASSDGPHPVITESRGGGGSASSESSASSDGPHPVITESRASSESSASSDGPHPVITESRGSSHHHHHH
notes: Expressed in CHO cells and heavily glycosylated on the mucin domain; also called IL1Ra 4TR; 4TR
koff [3]: 0.000106 s⁻¹
kon [3]: 1.6e+06 M⁻¹ s⁻¹

B4: RDB1826 (IL-1Ra fused to 6 MUC20 tandem repeats, C-terminal FLAG tag) (other)
chain: SARRPSGRKSSKMQAFRIWDVNQKTFYLRNNQLVAGYLQGPNVNLEEKIDVVPIEPHALFLGIHGGKMCLSCVKSGDETRLQLEAVNITDLSENRKQDKRFAFIRSDSGPTTSFESAACPGWFLCTAMEADQPVSLTNMPDEGVMVTKFYFQEDEGGGGSSESSASSDGPHPVITPSRASESSASSDGPHPVITPSRAGGGGSSESSASSDGPHPVITPSRASESSASSDGPHPVITPSRAGGGGSSESSASSDGPHPVITPSRASESSASSDGPHPVITPSRAGGGGSDYKDDDDK
notes: Expressed in CHO cells and heavily glycosylated on the mucin domain; also called IL1Ra 6TR; 6TR
koff [4]: 0.000144 s⁻¹
kon [4]: 270000 M⁻¹ s⁻¹
